Reference: US20240041840A1 (Areteia Therapeutics, Inc., priority 2020, published 2024)
Read-outs that look alike come from different tables or passages of the source.

Tests used:
[1] = test system: subjects with eosinophilic asthma
Experimental: Pulmonary function is measured by performing a spirometry, which measures forced expiratory volume in is (FEV1), the volume of air moved in the first second of exhalation, this is a well-accepted measure of asthma. Forced vital capacity (FVC) is the total volume of air exhaled during the entire forced expiratory volume (FEV) test. The FEV1/FVC ratio is a calculated measure that may provide a more specific measure of bronchoconstriction, independent of processes such as air trapping. Pulmonary function testing can be tested pre-bronchodilator (after waiting a sufficient time so that all bronchodilator medications have cleared) or post-bronchodilator, typically 15-30 minutes after inhaling a short-acting bronchodilator, such as albuterol. Bronchodilator reversibility (BDR) is calculated and assessed by analyzing FEV1 pre- and post-bronchodilator, and calculating the change both as absolute (ml) and percentage change.
Evaluation of Efficacy: Blood eosinophil count, changes in pulmonary function (FEV1), Asthma Control Questionnaire (ACQ-6), Asthma Control Questionnaire (ACQ-7), Asthma Quality of Life Questionnaire (AQLQ), exhaled nitric oxide, pharyngeal and nasal eosinophil peroxidase were collected periodically during the study. […]

[2] = test system: eosinophil peroxidase (EPX); conditions: Week 12 (FIG. 8)
Experimental: Eosinophil peroxidase (EPX) is a granule protein uniquely secreted by eosinophils which can be detected and quantified using an enzyme-linked immunosorbent assay (ELISA). EPX is measured from mucosal swabs or sputum samples. […] In embodiments, normal nasal EPX levels are less than about 10 ng/mg of total protein, whereas moderate to severe asthma of the eosinophilic phenotype may be diagnosed as having nasal EPX levels greater than about 10 ng/mg of total protein. […] Normal induced sputum EPX levels may be less than about 200 ng/mL/g recovered sputum, whereas moderate to severe asthma of the eosinophilic phenotype is diagnosed as having induced sputum EPX levels greater than about 200 ng/mL/g recovered sputum.
Evaluation of Efficacy: Blood eosinophil count, changes in pulmonary function (FEV1), Asthma Control Questionnaire (ACQ-6), Asthma Control Questionnaire (ACQ-7), Asthma Quality of Life Questionnaire (AQLQ), exhaled nitric oxide, pharyngeal and nasal eosinophil peroxidase were collected periodically during the study.

blood eosinophils = conditions: Week 12 (primary endpoint)

## CCCN[C@@H]1CCc2nc(N)sc2C1 [dexpramipexole, (6R)-2-amino-4,5,6,7-tetrahydro-6-(propylamino) benzothiazole]
[1]; 150 mg/day, Week 12
  FEV1 difference versus Placebo LSM: 0.0131 L
[1]; Week 8, pooled dexpramipexole arms, <50% AEC reduction at Week 12
  Pre-Bronchodilator FEV1 Change from Baseline LSM: 0.131 L
[2]; 150 mg/day
  Ratio of nasal tissue EPX to baseline compared with placebo: significant lowering
[2]; 300 mg/day
  Ratio of nasal tissue EPX to baseline compared with placebo: significant lowering
Blood eosinophils; 75 mg/day
  Blood absolute eosinophil count, ratio to baseline geometric LS mean: 0.4031
  Blood absolute eosinophil count, ratio vs Placebo geometric LS mean (95% CI): 0.4489
Blood eosinophils; 150 mg/day
  Blood absolute eosinophil count, ratio to baseline geometric LS mean: 0.3056
  Blood absolute eosinophil count, ratio vs Placebo geometric LS mean (95% CI): 0.3403
Blood eosinophils; 300 mg/day
  Blood absolute eosinophil count, ratio to baseline geometric LS mean: 0.2051
  Blood absolute eosinophil count, ratio vs Placebo geometric LS mean (95% CI): 0.2283
